Here are results for one molecule from paper PMC11721541 (Journal of Lipid Research, 2024).

Broadly, the Vmax is the rate approached at saturating substrate.

Where two headings read alike, the source gives them in different places.

One test deals with Pah1 (Saccharomyces cerevisiae, UniProt P32567). The conditions noted are these: 6 mM inhibitor preincubation; time course 20 s to 1 h.
Test [1] deals with WT S. cerevisiae cells (RS453).
The next test has as its system HepG2 cells. Nature of the test: Lipid analysis (TLC, charring) in HepG2 cells. Format: cell-based, human. The conditions noted are these: 10 μM, 18 h.
For test [2], the target named is Pah1 PAP (unphosphorylated) (Saccharomyces cerevisiae, UniProt P32567).
Setting [3] is: inhibitor 31.25 M (so in the source).
[4] abbreviates: inhibitor 62.5 M (so in the source).
Where [5] appears, read: inhibitor 125 M (so in the source).

`CN[C@H]1CC[C@@H](c2ccc(Cl)c(Cl)c2)c2ccccc21` [sertraline]: the “protection of Pah1 peptides from deuterium exchange” value on Pah1 is “failed to see protected peptides”. The “concentration that greatly reduces cell growth” value in test [1] (RPMI-0.2% glucose medium, exponential growth) was 10 µM. Also, in test [1] (SC-0.2% glucose medium, exponential growth), the “concentration required for similar reduction of cell growth” value stood at 245 µM. For the same molecule, the “concentration that abolishes cell growth, less in RPMI-0.2% glucose than in SC-0.2% glucose” value in test [1] (static incubation 2 days) is reported as about 30 fold. For the same molecule, in the test with HepG2 cells, the “relative amount of phospholipids” value is recorded as “not significantly affected”. The “reduction of Pah1 PAP activity” value in test [2] (62 μM of each inhibitor, PA 2.4 mol %) was found to be 38%. Besides, the “more effective inhibitor than propranolol based on Ki values” in test [2] (Pah1) was determined as 7 fold. The Hill no. n stood at 3.1 in test [2] (setting [3]), 4.0 in test [2] (setting [4]) and 3.7 in test [2] (setting [5]). Moreover, the Vmax in test [2] (setting [3]) amounted to 6.0 mol/min/mg; in test [2] (setting [4]), 3.0 mol/min/mg; in test [2] (setting [5]), 1.3 mol/min/mg. Further, in test [2] (purified Pah1), the “mechanism of inhibition of PAP activity” value was “noncompetitive”.
